{
  "sequences": {"note": "By UniProt entry, the sequences of proteins in these tests, tags left out. Where a name states a change or a piece, a line headed by the entry shows the natural chain unless it says otherwise.", "UniProt P31391": "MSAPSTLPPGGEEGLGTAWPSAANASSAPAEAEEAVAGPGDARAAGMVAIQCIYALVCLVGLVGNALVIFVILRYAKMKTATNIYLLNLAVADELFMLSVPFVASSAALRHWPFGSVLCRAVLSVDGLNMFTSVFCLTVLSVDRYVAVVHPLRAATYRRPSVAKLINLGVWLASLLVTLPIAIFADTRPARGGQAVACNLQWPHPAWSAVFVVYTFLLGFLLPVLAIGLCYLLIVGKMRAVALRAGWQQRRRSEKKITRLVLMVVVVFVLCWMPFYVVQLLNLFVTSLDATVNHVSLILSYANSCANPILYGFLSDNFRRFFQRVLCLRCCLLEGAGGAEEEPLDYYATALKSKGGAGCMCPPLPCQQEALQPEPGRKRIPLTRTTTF"},
  "source": "patent US9789082B2",
  "about": "“Somatostatin receptor subtype 4 (SSTR4) agonists” (Centrexion Therapeutics Corporation, priority 2013, dated 2017)",
  "key": {"[1]": {"assay": "Metabolic stability in pooled human liver microsomes (half-life)", "format": "in vitro ADME", "conditions": "37° C., 1 μM test compound", "experimental": "The metabolic stability of the compounds according to the invention may be investigated as follows:\nThe metabolic degradation of the test compound is assayed at 37° C. with pooled human liver microsomes. The final incubation volume of 100 μl per time point contains TRIS buffer pH 7.6 at room temperature (0.1 M), magnesium chloride (5 mM), microsomal protein (1 mg/mL) and the test compound at a final concentration of 1 μM. Following a short preincubation period at 37° C., the reactions are initiated by addition of beta-nicotinamide adenine dinucleotide phosphate, reduced form (NADPH, 1 mM), and terminated by transferring an aliquot into solvent after different time points. After centrifugation (10000 g, 5 min), an aliquot of the supernatant is assayed by LC-MS/MS for the amount of parent compound. The half-life is determined by the slope of the semi-logarithmic plot of the concentration-time profile."}, "[2]": {"target": "human Somatostatin 4 receptor (SSTR4) (Homo sapiens (Human), UniProt P31391)", "assay": "cAMP assay with human somatostatin 4 receptor (hSSTR4 expressing H4 cells)", "format": "cell-based", "conditions": "read-out: SSTR4 agonism EC50", "experimental": "Camp Assay Method Description for cAMP Assay with Human Somatostatin 4 Receptor\nThe activation of the SSTR4 receptor (Gi coupled) causes an inhibition of intracellular cAMP after stimulation with Forskolin, which can be quantifiable by use of a suitable assay Kit and an adequate plate reader. This technique is used to characterize pharmacological effects of the SSTR4 receptor agonists by use of hSSTR4 expressing H4 cells.\nCompounds are dissolved and diluted in DMSO. The final test solution contains 1% DMSO. […] Cells are centrifuged and suspended in assay buffer (incl. 1:100 diluted Alexa antibody).\nFor the assay 5 μl of a cell suspension (approximately 5000 cells/well)—incl. Alexa antibody (diluted 1:100) are added into a 384 well MTP microtitre plate excepting one row or column (depending on the plate layout), which is reserved for the standard curve. Then 2 μl of compound sample is added as concentration response curve (e.g. 1e-5 M to 6e-10 M), usually in triplicates. Each assay contains incubations with vehicle controls instead of compound as controls for non-inhibited cAMP generation (100% CTL; ‘high values’) and incubations with 1 μM Somatosatin as controls for full inhibition and background (0% CTL; […]). […] Then the plates are shaken briefly and incubated for 60 min at room temperature. After 60 min 10 μl of the detection mix is added into all wells followed by an additional incubation period of 1 h. The plates are read in a suitable plate reader.\nFrom this ratio, cAMP concentrations are calculated from standard curve and the EC50 is estimated by least square curve fit program.\nThe EC50 values were obtained with the aid of the above described cAMP ASSAY."}},
  "data": [
    {"smiles": "Cc1nnc(C(C)(C)NC(=O)[C@H]2[C@@H]3CNC[C@@H]32)c2ccccc12", "note": "[Example 77]", "values": [
      {"measurement": "Half-life t1/2", "setting": "[1]", "value": ">2.17", "unit": "h"}
    ]},
    {"smiles": "Cc1ccc(C(C)(C)NC(=O)[C@H]2[C@@H]3CNC[C@@H]32)c2nccn12", "note": "[Example 79]", "values": [
      {"measurement": "EC50", "setting": "[2]", "value": 83.7, "unit": "nM"}
    ]},
    {"smiles": "CC(C)(NC(=O)[C@H]1[C@@H]2CNC[C@@H]21)c1ncnc2ccccc12", "note": "[Example 89]", "values": [
      {"measurement": "Half-life t1/2", "setting": "[1]", "value": ">2.17", "unit": "h"}
    ]},
    {"smiles": "CC(C)(NC(=O)[C@H]1[C@@H]2CNC[C@@H]21)c1cncc2ccccc12", "note": "[Example 90]", "values": [
      {"measurement": "Half-life t1/2", "setting": "[1]", "value": ">2.17", "unit": "h"}
    ]},
    {"smiles": "Cc1cccc2c(C(C)(C)NC(=O)[C@H]3[C@@H]4CNC[C@@H]43)noc12", "note": "[Example 92]", "values": [
      {"measurement": "Half-life t1/2", "setting": "[1]", "value": ">2.17", "unit": "h"}
    ]},
    {"smiles": "CC(C)(NC(=O)[C@H]1[C@@H]2CNC[C@@H]21)c1noc2c(Cl)cccc12", "note": "[Example 103]", "values": [
      {"measurement": "Half-life t1/2", "setting": "[1]", "value": ">2.17", "unit": "h"}
    ]},
    {"smiles": "CC(C)(NC(=O)[C@H]1[C@@H]2CNC[C@@H]21)c1noc2c(C3CC3)cccc12", "note": "[Example 104]", "values": [
      {"measurement": "Half-life t1/2", "setting": "[1]", "value": ">2.17", "unit": "h"}
    ]},
    {"smiles": "Cc1cc2c(C)ccnc2c(C(C)(C)NC(=O)[C@H]2[C@@H]3CNC[C@@H]32)n1", "note": "[Example 170]", "values": [
      {"measurement": "EC50", "setting": "[2]", "value": 10.9, "unit": "nM"}
    ]},
    {"smiles": "Cc1ccc2cc(C(C)(C)NC(=O)[C@H]3[C@@H]4CNC[C@@H]43)cn2c1", "note": "[Example 171]", "values": [
      {"measurement": "EC50", "setting": "[2]", "value": 61.5, "unit": "nM"}
    ]}
  ]
}
